In patent publication US20070105931A1, “Methods and compositions for inhibiting the proliferation of prostate cancer cells” (Mayo Foundation for Medical Education and Research, priority 2003, published 2007):

Test system: LNCaP cells
Experiment: Growth response (MTS cell proliferation assay), LNCaP
Format: cell-based
Details: Homo sapiens, 144 h, MTS assay 6 days after treatment
Procedure: Human prostate cancer cell lines LNCaP (American Type Culture Collection, Manassas, Va.) and LAPC-4 (kindly provided by Dr. Charles L. Sawyers; Zhu et al., 1999, Endocrinology, 140:5451-4) were maintained in RPMI 1640 (Mediatech, Hercules, Calif.) containing 5% FBS (Biofluids, Rockville, Md.) at 37° C. and 5% CO2. To avoid potential interference of existing steroids in FBS, the media were first replaced by serum-free RPMI 1640 for 24 h. Cells were then cultured in RPMI 1640 with 5% charcoalstripped FBS supplemented with or without 1 nM Mib (New England Nuclear, Boston, Mass.), a nomnetabolizable, synthetic androgen.
Cells were plated in 24-well plates at 2×10^4 cells/well. Forty-eight h after plating, cells were treated with celecoxib or nimesulide (LKT Lab, St. Paul, Minn.) and other NSAIDs as shown in Table 1 at different doses in the presence or absence of Mib. MTS assay (Promega, Madison, Wis.) was performed to determine cell proliferation 6 days after the treatment. To measure secreted PSA and hK2 levels, 400 μl of spent medium from cells treated for 6 days were collected. PSA and hK2 proteins levels were determined using specific immunoassays (Mayo Immunochemical Core Facility). These measurements were used to the calculate 50% inhibitory concentration (IC50) of each of the NSAIDs.

Question: For `Cc1ccc(-c2cc(C(F)(F)F)nn2-c2ccc(S(N)(=O)=O)cc2)cc1` [Celecoxib], which IC50 is on record?
Answer: Its IC50 is 32.6 µM.
